# Binding of CDR-mutated scFvs to a peptide of the spike HR2 region

Data: MIT Lincoln Laboratory AlphaSeq set, Engelhart et al. 2022, doi:10.1038/s41597-022-01779-4, as distributed in FLAb.

Target: peptide PDVDLGDISGINAS, taken from heptad repeat 2 (HR2) of SARS-CoV-2 spike.

Parent: Ab-14, a human scFv built as VH, three GGGGS repeats, VL. Only the CDRs of the heavy chain vary.
VH: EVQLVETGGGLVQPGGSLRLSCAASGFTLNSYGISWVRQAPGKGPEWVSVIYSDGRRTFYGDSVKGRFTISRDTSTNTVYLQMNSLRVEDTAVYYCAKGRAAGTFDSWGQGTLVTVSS
VL: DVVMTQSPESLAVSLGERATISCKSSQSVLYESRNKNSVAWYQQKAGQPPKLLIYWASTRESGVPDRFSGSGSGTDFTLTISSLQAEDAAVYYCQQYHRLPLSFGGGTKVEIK

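The starting antibody came from a phage panning campaign against this peptide. Variants in AAYL49 differ from the parent at up to three CDR positions; double and triple changes were sampled at random. In AlphaSeq, yeast of one mating type display the scFv and yeast of the other type display the target. Mating (16 h, 30 °C) was followed by selection of diploids and sequencing of their barcodes. A regression on co-assayed BCL2-family reference pairs converts the normalised counts of each replicate to an apparent Kd. There are three technical replicates.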

Variants are written as CDR1, CDR2 and CDR3 of the heavy chain (limits as in the source). Parent: GFTLNSYGIS, VIYSDGRRTFYGDSVK, GRAAGTFDS.
Every variant below is changed at G55 of the VH (sequential numbering).
The Kd shown is the geometric mean over detected replicates; a lower Kd is a better binder.
An entry "nd" has no value in the source: the pair was not observed among the diploids in any replicate. This suggests poor binding but is not conclusive.
Order: sorted from the lowest average up, undetected variants last.
For reference, the parent read 4.4 nM as the reference entry and 13 µM (one replicate of three) as a member of this library.

The variant GFTLNNYGIS | VIYADSRRTFYGDSVK | GRAAGTFDS gave 150 nM (3 of 3 replicates).
The variant GFTLNSYGCS | VIYSDRRKTFYGDSVK | GRAAGTFDS gave 1.4 µM (2 of 3 replicates).
The variant GFTLNSYGIS | VIMSDSNRTFYGDSVK | GRAAGTFDS gave 4.2 µM (1 of 3 replicates).
The variant TFWLNSYGIS | VIYSDMRRTFYGDSVK | GRAAGTFDS gave 5.2 µM (1 of 3 replicates).
The variant GFTLNSYGIS | VIYSDFERTFYGDSVK | GRAAGTFDS gave 6.7 µM (2 of 3 replicates).
The variant GTTLNSYTIS | VIYSDQRRTFYGDSVK | GRAAGTFDS gave 7.6 µM (1 of 3 replicates).
The variant GFTLNSYGIS | VIYSDCRRGFYGDSVK | GRTAGTFDS gave 10 µM (1 of 3 replicates).
The variant GFTLNSYGIS | VITSDARRTFYGDSVK | ARAAGTFDS gave 13 µM (1 of 3 replicates).
The variant GFRLNSYGIS | VIMSDYRRTFYGDSVK | GRAAGTFDS gave 17 µM (2 of 3 replicates).
The variant GFTLNSYGIS | VIYSDRRRTYYGDSVK | GRAAGTFDS gave 17 µM (1 of 3 replicates).
The variant GFTLNSYGIS | VIYSDYRRGFYGDSVK | GRAAGTPDS gave 21 µM (1 of 3 replicates).
The variant GFTLNSYGIS | VIHSDIRRTFYGDSVK | GRAAGTFDS gave 24 µM (1 of 3 replicates).
The variant GFTLNSYGIS | VIYSDSLRTFYGDSVK | GRAAGTFDG gave 24 µM (2 of 3 replicates).
The variant GFTLFIYGIS | VIYSDIRRTFYGDSVK | GRAAGTFDS gave 24 µM (2 of 3 replicates).
The variant GFTLNSYGIS | VIYSDNRRTFRGDSFK | GRAAGTFDS gave 68 µM (2 of 3 replicates).
The variant GFTLNSYGIS | VIYSDKRRTQYGDFVK | GRAAGTFDS gave 74 µM (2 of 3 replicates).
The variant GFTLNSYGIS | VIYSDVNRTFYGDSVK | GRAAGEFDS gave 120 µM (3 of 3 replicates).
The variant GFTLNSYGIS | VIYSDFRRTAYGDSVK | GRAAGTFDS gave 240 µM (1 of 3 replicates).
The variant GFTLNSYGIS | VAYQDKRRTFYGDSVK | GRAAGTFDS gave 1.3 mM (2 of 3 replicates).
The variant GFNLNSYGIS | VKYSDVRRTFYGDSVK | GRAAGTFDS gave nd (0 of 3 replicates).
The variant GFTLNSYGIS | VIYSDARRTFSGDSVK | GRAAGTFDS gave nd (0 of 3 replicates).
The variant GFTLNSYGIS | VIYSDDQRTFYGDSVK | GRAAGTFDS gave nd (0 of 3 replicates).
The variant GFTLNSSGIS | VICSDMRRTFYGDSVK | GRAAGTFDS gave nd (0 of 3 replicates).
The variant GFTLNSYGIS | VIYSDQRRTFYGDSVK | GGAAGTFVS gave nd (0 of 3 replicates).
The variant GFTLNSYGIS | VIYQDTRRTFGGDSVK | GRAAGTFDS gave nd (0 of 3 replicates).
The variant GFDLNSYGIS | VIYSDHRRTFYGDSVK | GRAAGTFDS gave nd (0 of 3 replicates).
The variant GFTLNSYWIS | VIYSDCRRTFYGDSGK | GRAAGTFDS gave nd (0 of 3 replicates).
The variant GFTLNSYGIS | VIHSDCRRTFYGDSVK | GRAAGTFDQ gave nd (0 of 3 replicates).
The variant GFTLNSYGIS | VIYSDYRRTSYGDSNK | GRAAGTFDS gave nd (0 of 3 replicates).
The variant DFTLNSYGIS | VIYSDIRRTFYGDSVK | GRAANTFDS gave nd (0 of 3 replicates).
The variant GFTLNSYGIS | VIYSDVRRTFYGDSVK | GRAFGTFDS gave nd (0 of 3 replicates).
The variant GFTLNSYGIS | VITSDTRRTFYGDSVK | GRAAGTFDS gave nd (0 of 3 replicates).
The variant GFTLNQYGSS | VIYSDKRRTFYGDSVK | GRAAGTFDS gave nd (0 of 3 replicates).
The variant GFHLNSYGIS | VIYSDIRRTFYGDSVK | ARAAGTFDS gave nd (0 of 3 replicates).
The variant GFTLNSYGIS | VIYSDEHRTFYGDHVK | GRAAGTFDS gave nd (0 of 3 replicates).
The variant GFTLNSYGIS | VIYFDIRRTFYGDSVL | GRAAGTFDS gave nd (0 of 3 replicates).
The variant GFTLNSYGIS | FIYSDWRRTFYGDSVK | GRAGGTFDS gave nd (0 of 3 replicates).
The variant GFTLNSYGIS | VIYSDMARTFYGDSVK | GRAAGAFDS gave nd (0 of 3 replicates).
The variant GFFLNSYGIS | VIYSDRRRTLYGDSVK | GRAAGTFDS gave nd (0 of 3 replicates).
The variant GFTHNSYGIS | VIYSDMRRTFYGDSVK | GRAWGTFDS gave nd (0 of 3 replicates).
The variant GFTLNSNGIS | CIYSDWRRTFYGDSVK | GRAAGTFDS gave nd (0 of 3 replicates).
The variant HFTLNSYGIS | VIYSDYRRTFYGDSVK | GRAAGTFDY gave nd (0 of 3 replicates).
The variant GFTQNSYGIS | VIYSDWLRTFYGDSVK | GRAAGTFDS gave nd (0 of 3 replicates).
The variant GFTLNSYGRS | VIYSTKRRTFYGDSVK | GRAAGTFDS gave nd (0 of 3 replicates).

The 2 strongest on average among those seen in every replicate, once more:

The variant GFTLNNYGIS | VIYADSRRTFYGDSVK | GRAAGTFDS showed 150 nM (3 of 3 replicates).
The variant GFTLNSYGIS | VIYSDVNRTFYGDSVK | GRAAGEFDS showed 120 µM (3 of 3 replicates).

Background: pairings of library AAYL49 with three empty control strains gave a value in 15% of cases (median 11 µM, 5th percentile 680 nM). Values in that range, when seen in few replicates, are hard to tell from nonspecific mating.